The record followed here is ChEMBL document CHEMBL3351542, “Nonpeptide small molecule agonist and antagonist original leads for neuropeptide FF1 and FF2 receptors” (J Med Chem, 2014).

SMILES strings stand for the structures.

The assay addresses Delta-type opioid receptor (Homo sapiens, UniProt P41143). As to the kind of experiment: Displacement of [3H]DPDPE from human DOR expressed in HEK293 cells after 60 mins by scintillation counting analysis.
As to `COc1cc(NC2(CNC(=O)CNC(=N)N)CCN(Cc3ccccc3)CC2)cc(OC)c1`, the inhibition constant (Ki) is above 5 µM.
As to `N=C(N)NCC(=O)NCC1(Nc2cccc3ccccc23)CCN(Cc2ccccc2)CC1`, the Ki is above 5 µM.
Take `N=C(N)NCCNC(=O)C1(Nc2ccccc2)CCN(Cc2ccccc2)CC1`: the Ki was 2.49 µM.
Under `N=C(N)NCC(=O)NCC1(Nc2ccccc2)CCN(Cc2ccccc2)CC1` stands above 5 µM.
